Measured values taken from patent US11286274B2, “Nicotinamide riboside derivatives and their uses” (MitoPower LLC, priority 2017, dated 2022).

Key:
Jurkat cells [1] = assay: Total cellular NAD+ level after MNNG-induced depletion (NAD/NADH Glo Assay), Jurkat cells; format: cell-based; details: no test compound
Jurkat cells [2] = assay: MNNG-induced cytotoxicity / cytoprotection (CellTiter-Blue Cell Viability Assay), Jurkat cells; format: cell-based; details: no test compound

For methynitronitrosoguanidine, the “depletion of NAD+ level at 4 hr” value (Jurkat cells [1]; 75 μM MNNG for 30 min) was 92.1%, the “depletion of NAD+ level at 4 hr” value (Jurkat cells [1]; 100 μM MNNG for 30 min) was 76.9% and 94% and the “cytotoxicity at 4 hr” value (Jurkat cells [2]; 75 μM MNNG for 30 min) was 87%. The “cytotoxicity at 4 hr” value (Jurkat cells [2]; 150 μM MNNG for 30 min) was 63.2% and the “cytotoxicity at 4 hr” value (Jurkat cells [2]; 200 μM MNNG for 30 min) was 78%.

Where “and” joins values, the source holds several entries; their conditions need not be identical. Identical values can stand only once.
